{"source": "paper PMC8691691", "about": "(ACS Chemical Neuroscience, 2021)", "key": {"[1]": {"target": "T1, GlyT2 D635E mutant (Rattus norvegicus, UniProt P58295, D635E)", "T1 construct": "expressed in transfected cells; host or cells: COS7", "T1 sequence (P58295 1-799 D635E)": "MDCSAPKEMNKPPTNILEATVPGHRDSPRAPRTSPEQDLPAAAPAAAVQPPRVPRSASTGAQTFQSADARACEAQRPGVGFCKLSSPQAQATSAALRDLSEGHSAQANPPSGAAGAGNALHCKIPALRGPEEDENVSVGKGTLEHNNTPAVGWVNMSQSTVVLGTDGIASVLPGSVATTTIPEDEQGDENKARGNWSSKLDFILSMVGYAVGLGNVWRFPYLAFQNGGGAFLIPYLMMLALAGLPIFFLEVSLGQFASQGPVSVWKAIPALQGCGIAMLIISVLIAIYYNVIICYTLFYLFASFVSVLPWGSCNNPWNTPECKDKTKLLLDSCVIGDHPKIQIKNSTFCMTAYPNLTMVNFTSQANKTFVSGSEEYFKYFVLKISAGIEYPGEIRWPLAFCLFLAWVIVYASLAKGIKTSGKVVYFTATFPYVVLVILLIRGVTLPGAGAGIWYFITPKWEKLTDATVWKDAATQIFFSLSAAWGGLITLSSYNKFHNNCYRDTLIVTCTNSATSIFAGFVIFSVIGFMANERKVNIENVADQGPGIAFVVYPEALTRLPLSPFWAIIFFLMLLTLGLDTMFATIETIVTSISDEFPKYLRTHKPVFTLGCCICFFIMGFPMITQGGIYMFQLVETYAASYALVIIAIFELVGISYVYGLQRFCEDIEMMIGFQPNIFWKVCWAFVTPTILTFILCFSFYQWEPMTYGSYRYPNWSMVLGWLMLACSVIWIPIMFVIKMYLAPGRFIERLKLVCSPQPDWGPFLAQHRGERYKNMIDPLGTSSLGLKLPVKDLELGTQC", "assay": "[3H]glycine transport by GlyT2 mutant in COS7 cells", "format": "cell-based"}, "[2]": {"target": "T2, GlyT2 T584L mutant (Rattus norvegicus, UniProt P58295, T584L)", "T2 construct": "expressed in transfected cells; host or cells: COS7", "T2 sequence (P58295 1-799 T584L)": "T1 sequence (P58295 1-799 D635E) with T584L, E635D", "assay": "[3H]glycine transport by GlyT2 mutant in COS7 cells", "format": "cell-based"}}, "note": "Substitutions are numbered along the chain they refer to.", "data": [{"smiles": "NCC(=O)O", "note": "[Gly, glycine]", "values": [{"measurement": "EC50", "setting": "[1]", "result": "123 ± 6", "unit": "µM"}, {"measurement": "EC50", "setting": "[2]", "result": "1200 ± 189", "unit": "µM"}]}]}
